Where “and” joins values, the source holds several entries; their conditions need not be identical. Equal values may be shown once.
Biological target: T1, rat cerebral cortex adenosine A1 receptor (Rattus norvegicus, UniProt P25099)
T1 construct: DPCPX; from tissue; host or cells: Wistar rat cerebral cortex
Assay: adenosine A1 receptor ligand binding test ([3H]DPCPX)
Settings: saturation curve, Scatchard

The chains behind the UniProt entries cited, without tags or fusion partners.
UniProt P25099, whole entry: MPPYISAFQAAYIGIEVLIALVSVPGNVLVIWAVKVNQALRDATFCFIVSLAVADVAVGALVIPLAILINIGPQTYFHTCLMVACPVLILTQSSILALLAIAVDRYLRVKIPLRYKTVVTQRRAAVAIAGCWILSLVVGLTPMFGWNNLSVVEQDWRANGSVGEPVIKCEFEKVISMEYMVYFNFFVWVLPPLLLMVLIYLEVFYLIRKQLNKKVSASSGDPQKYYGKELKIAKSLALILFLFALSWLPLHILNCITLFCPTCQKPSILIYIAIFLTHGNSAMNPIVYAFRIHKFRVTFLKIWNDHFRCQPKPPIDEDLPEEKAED

SMILES: [3H]CCC([3H])n1c(=O)c2[nH]c(C3CCCC3)nc2n(C([3H])CC[3H])c1=O (stereo not shown) [[^3H]-DPCPX, reference compound]
- Bmax of A1 binding: 2140 fmol/mg and 2290 fmol/mg
